Measurements from patent US20160002291A1, “Active Agent Prodrugs with Heterocyclic Linkers” (Signature Therapeutics, Inc., priority 2011, published 2016).

Legend:
[1] = Pharmacokinetics following PO administration of hydrocodone prodrugs to rats (Example 45); conditions: hydrocodone in rat plasma, dose per compound as in Table 10 (24-30 μmol/kg)
[2] = Pharmacokinetics of hydrocodone prodrugs PO to dogs and effect of co-administered Compound 109 (Example 47); conditions: dogs PO
[3] = 1 dose unit: KC-40 0.4 mg/kg + Compound 109 0.08 mg/kg ([…])
[4] = 4 dose units: KC-40 […] + Compound 109 0.32 mg/kg (0.56 μmol/kg)
[5] = 10 dose units: KC-40 4 mg/kg (4.9 μmol/kg) + Compound 109 0.8 mg/kg ([…])
[6] = KC-40 0.1 mg/kg (0.1 μmol/kg), no Compound 109
[7] = KC-40 0.4 mg/kg (0.5 μmol/kg), no Compound 109
[8] = KC-40 […] (2.0 μmol/kg), no Compound 109

N-(hydrocodone-6-enol-carbonyl)-(2-methylamino)piperidine-4-carboxylate]-L-arginine-glycine-acetate [Compound KC-40]
HC Cmax ± sd [1]: 5.86 ± 1.8 ng/mL | Tmax ± sd [1]: 25 ± 5.76 min | HC Cmax ± sd [2, 3]: 12.9 ± 4.8^ ng/mL | Tmax ± sd [2, 3]: 56.3 ± 7.8 min | HC Cmax ± sd [2, 4]: 23.3 ± 12 ng/mL | Tmax ± sd [2, 4]: 150 ± 34.8 min | HC Cmax ± sd [2, 5]: 13.2 ± 7.6 ng/mL | Tmax ± sd [2, 5]: 300 ± 156 min | HC Cmax ± sd [2, 6]: 4.12 ± 1.2 ng/mL | Tmax ± sd [2, 6]: 25 ± 5.76 min | HC Cmax ± sd [2, 7]: 13.2 ± 2.7 ng/mL | Tmax ± sd [2, 7]: 37.5 ± 8.4 min | HC Cmax ± sd [2, 8]: 66.5 ± 8.1 ng/mL | Tmax ± sd [2, 8]: 27.5 ± 5.04 min
